For one test, the target named is hM3Dq (Homo sapiens, UniProt P20309, A239G/Y149C). In words: cell-based.
Test [1] has as its target hM3 (native human M3 receptor) (Homo sapiens, UniProt P20309). In words: cell-based.

Sequences of proteins named here, by UniProt entry; tags and fusion partners are left off.
UniProt P20309, whole entry Y149C/A239G: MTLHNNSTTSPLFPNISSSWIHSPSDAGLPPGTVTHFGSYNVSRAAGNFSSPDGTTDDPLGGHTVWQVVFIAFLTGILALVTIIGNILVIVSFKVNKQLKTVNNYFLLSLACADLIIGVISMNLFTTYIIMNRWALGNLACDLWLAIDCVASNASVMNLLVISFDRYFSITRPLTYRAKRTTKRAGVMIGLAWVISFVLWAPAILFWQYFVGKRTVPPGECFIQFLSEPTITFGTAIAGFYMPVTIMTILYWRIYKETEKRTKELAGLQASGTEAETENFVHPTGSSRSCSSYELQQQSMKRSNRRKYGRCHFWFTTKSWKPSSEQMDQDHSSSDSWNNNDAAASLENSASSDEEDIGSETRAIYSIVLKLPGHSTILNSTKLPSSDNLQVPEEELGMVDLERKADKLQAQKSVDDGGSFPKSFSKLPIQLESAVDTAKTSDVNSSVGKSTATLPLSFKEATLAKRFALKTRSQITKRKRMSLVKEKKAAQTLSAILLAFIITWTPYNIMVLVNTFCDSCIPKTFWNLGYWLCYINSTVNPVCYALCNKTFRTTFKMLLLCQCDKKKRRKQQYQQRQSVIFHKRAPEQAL
UniProt P20309, whole entry: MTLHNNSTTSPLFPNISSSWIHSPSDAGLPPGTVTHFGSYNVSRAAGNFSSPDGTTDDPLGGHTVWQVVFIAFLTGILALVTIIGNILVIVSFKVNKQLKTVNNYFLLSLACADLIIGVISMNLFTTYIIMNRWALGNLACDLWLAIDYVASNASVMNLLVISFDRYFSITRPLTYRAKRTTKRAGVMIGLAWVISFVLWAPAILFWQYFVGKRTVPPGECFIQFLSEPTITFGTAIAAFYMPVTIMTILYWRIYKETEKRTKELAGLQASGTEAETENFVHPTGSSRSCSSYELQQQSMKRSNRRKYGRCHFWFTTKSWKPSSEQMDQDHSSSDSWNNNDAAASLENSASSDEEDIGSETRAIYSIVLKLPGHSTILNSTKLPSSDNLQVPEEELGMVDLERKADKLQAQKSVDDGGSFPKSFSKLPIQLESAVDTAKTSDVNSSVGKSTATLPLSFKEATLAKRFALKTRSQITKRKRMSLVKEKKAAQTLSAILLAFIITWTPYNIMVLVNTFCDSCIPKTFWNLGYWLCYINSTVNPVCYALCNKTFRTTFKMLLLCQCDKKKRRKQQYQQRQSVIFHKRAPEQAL

Broadly, the EC50 is the concentration that produces a half-maximal response. Lower therefore signals a more potent agent.

Where only a bound is given, the exact number is not on record here.

`CCN1CCN(C2=Nc3ccccc3Nc3ccccc32)CC1` [Compound 22, 11-(4-Ethylpiperazin-1-yl)-5H-dibenzo[b,e][1,4]diazepine]: the values for the EC50 (on hM3Dq; in test [1]) were 1.3 nM and greater than 30000 nM, respectively.

The values above are taken from publication PMC4368042 (ACS Chemical Neuroscience, 2015).
